According to patent US20110223597A1 (priority 2010, published 2011):

Experiments:
Assay in all cases: in vitro
[1] = test system: UGT2B10(*2/*2)/UGT1A4(*1/*1); details: human, pH 7.5, KM, OLZ-10-N-glucuronide isomer 1 formation; single HLM UGT2B10(*2/*2)/UGT1A4(*1/*1)
[2] = test system: UGT1A4(*1/*3)/UGT2B10(*1/*1); details: human, pH 7.5, KM, OLZ-10-N-glucuronide isomer 1 formation; HLM UGT1A4(*1/*3)/UGT2B10(*1/*1)
[3] = test system: UGT2B10(*1/*2)/UGT1A4(*1/*1); details: human, pH 7.5, KM, OLZ-10-N-glucuronide isomer 1 formation; HLM UGT2B10(*1/*2)/UGT1A4(*1/*1)
[4] = test system: UGT1A4(*1/*1)/UGT2B10(*1/*1); details: human, pH 7.5, KM, OLZ-10-N-glucuronide isomer 2 formation; HLM UGT1A4(*1/*1)/UGT2B10(*1/*1)
[5] = test system: UGT1A4(*3/*3)/UGT2B10(*1/*1); details: human, pH 7.5, KM, OLZ-10-N-glucuronide isomer 1 formation; HLM UGT1A4(*3/*3)/UGT2B10(*1/*1)

Q: Which results are given for `Cc1cc2c(s1)Nc1ccccc1N=C2N1CCN(C)CC1` [OLZ, Olanzapine]?
A: Km at 2 h [1]: 273 µM; Km at 2 h [2]: 328 ± 33 µM; Km at 2 h [3]: 302 ± 50 µM; Km at 2 h [4]: 311 ± 27 µM; Km at 2 h [5]: 268 ± 41 µM
